# In US20050095674A1, “Cannabinoid receptor interacting proteins and methods of use” (priority 2003, published 2005):
# Amino acid sequences for entries named in this document (tags omitted). Residues count along the entry.
# UniProt P20272, whole entry: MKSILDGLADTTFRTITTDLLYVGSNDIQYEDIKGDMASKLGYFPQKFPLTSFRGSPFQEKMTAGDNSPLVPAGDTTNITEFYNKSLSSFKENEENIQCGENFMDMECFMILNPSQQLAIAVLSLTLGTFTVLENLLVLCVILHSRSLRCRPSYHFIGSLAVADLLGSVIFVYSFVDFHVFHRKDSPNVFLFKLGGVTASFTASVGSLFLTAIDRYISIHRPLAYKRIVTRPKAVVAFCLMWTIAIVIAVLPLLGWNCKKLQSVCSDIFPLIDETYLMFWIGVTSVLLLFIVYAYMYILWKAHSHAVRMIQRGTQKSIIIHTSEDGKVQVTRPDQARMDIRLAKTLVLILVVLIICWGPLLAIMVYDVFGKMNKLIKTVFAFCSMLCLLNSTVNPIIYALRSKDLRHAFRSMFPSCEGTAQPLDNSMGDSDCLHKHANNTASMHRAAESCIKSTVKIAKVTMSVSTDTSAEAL
# UniProt P20272, 1-464 limits assumed: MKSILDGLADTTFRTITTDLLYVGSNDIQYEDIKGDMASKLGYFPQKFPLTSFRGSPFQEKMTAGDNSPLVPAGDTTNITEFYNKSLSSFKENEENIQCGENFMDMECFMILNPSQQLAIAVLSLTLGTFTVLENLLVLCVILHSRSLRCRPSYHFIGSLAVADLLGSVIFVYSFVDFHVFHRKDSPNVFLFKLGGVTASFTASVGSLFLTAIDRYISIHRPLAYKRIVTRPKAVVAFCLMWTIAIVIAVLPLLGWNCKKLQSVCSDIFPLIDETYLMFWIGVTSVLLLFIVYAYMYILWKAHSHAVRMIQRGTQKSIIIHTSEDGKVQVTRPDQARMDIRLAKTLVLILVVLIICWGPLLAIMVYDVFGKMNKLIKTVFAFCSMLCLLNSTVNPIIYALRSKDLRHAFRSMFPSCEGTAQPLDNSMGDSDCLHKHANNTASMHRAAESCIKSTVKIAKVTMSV
# Columns and labels:
# [1] = biological target: T1, CB1 cannabinoid receptors (Rattus norvegicus, UniProt P20272); assay: GIRK currents in cerebellar granule neurons, patch clamp, cannabinoid agonists; format: cell-based; conditions: 1 μM; step from -60 to -100 mV; 30 mM KCl
# T1 construct: Cerebellar granule neurons express endogenous CB1 cannabinoid receptors; endogenous in cells; host or cells: primary rat cerebellar granule neurons
# [2] = biological target: T2, CB1-464 truncated receptor (Rattus norvegicus, UniProt P20272); assay: Whole-cell patch clamp of Ca2+ currents in SCG neurons expressing the CB1-464 truncated receptor; format: cell-based; conditions: CB1-464 versus wild type CB1
# T2 construct: expressed in transfected cells
smiles,measurement,setting,value
"Cc1c(C(=O)c2cccc3ccccc23)c2cccc3c2n1[C@H](CN1CCOCC1)CO3 [WIN 55,212-2]",activation of GIRK currents,[1],GIRK currents were activated
same,"agonist effect on Ca2+ current, truncated receptor compared to wild type CB1 receptor",[2],showed a trend to increase that was close to significance
